# Assay: Study 101, plasma epinephrine pharmacokinetics
# Format: in vivo, human
# Set-up: unit not given beside the values
# Conditions: 0.5 mg IM
# Description: Each patient was provided each treatment of the trial with 72-hour washout periods between each treatment, beginning with a 3.5 mg intranasal dose, followed by a 0.3 mg intramuscular dose, followed by a 0.5 mg intramuscular dose, and concluding with a 5.5 mg intranasal dose, with a safety follow-up performed 3 to 5 days after the final dose was administered. The primary endpoints of the study were pharmacokinetic measurements and assessments of comparative bioavailability, while the secondary endpoints were safety concerns and pharmacodynamic assessments.
compound,measurement,value
"CNC[C@H](O)c1ccc(O)c(O)c1 [Epinephrine IM, epinephrine]",Cmax (GeoMean),382.3
